Measurements published in US9468642B2, “Imidazopyrazines” (BAYER INTELLECTUAL PROPERTY GMBH, priority 2011, dated 2016).

Sequences of proteins named here, by UniProt entry; tags and fusion partners are left off. A change or cut given only in a name is not applied to a line headed by its entry.
UniProt P33981: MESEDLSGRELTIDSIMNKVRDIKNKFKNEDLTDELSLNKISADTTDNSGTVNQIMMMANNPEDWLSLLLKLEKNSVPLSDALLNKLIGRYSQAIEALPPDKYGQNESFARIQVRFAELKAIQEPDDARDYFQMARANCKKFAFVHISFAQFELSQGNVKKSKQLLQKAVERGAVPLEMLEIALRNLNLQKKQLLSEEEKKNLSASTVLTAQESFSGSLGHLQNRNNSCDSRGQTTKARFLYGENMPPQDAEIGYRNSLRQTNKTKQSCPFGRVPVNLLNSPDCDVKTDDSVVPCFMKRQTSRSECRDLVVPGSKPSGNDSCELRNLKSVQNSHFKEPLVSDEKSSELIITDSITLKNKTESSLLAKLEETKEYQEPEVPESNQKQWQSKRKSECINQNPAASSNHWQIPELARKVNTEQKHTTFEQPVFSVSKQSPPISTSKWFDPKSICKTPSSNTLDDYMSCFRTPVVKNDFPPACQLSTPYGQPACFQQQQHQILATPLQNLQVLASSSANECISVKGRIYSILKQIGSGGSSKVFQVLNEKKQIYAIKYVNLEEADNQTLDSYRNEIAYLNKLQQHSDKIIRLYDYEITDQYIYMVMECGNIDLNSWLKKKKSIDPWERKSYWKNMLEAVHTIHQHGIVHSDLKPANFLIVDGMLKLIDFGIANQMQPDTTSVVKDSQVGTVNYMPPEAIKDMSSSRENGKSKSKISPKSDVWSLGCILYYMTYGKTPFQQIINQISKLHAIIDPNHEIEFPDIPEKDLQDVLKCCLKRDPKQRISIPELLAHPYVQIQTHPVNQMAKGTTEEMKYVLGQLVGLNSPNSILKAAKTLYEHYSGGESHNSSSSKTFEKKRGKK

The molecules below were run against human kinase Mps-1 (Homo sapiens (Human), UniProt P33981) (assay: Mps-1 Kinase Assay (TR-FRET)). Conditions: N-terminally GST-tagged human full length recombinant Mps-1; 10 μM ATP; 1 μM peptide substrate; 60 min at 22° C.; read-out: Mps1 IC50.
Assay type: biochemical
Method: The human kinase Mps-1 phosphorylates a biotinylated substrate peptide. Detection of the phosphorylated product is achieved by time-resolved fluorescence resonance energy transfer (TR-FRET) from Europium-labelled anti-phospho-Serine/Threonine antibody as donor to streptavidin labelled with cross-linked allophycocyanin (SA-XLent) as acceptor. Compounds are tested for their inhibition of the kinase activity.
N-terminally GST-tagged human full length recombinant Mps-1 kinase (purchased from Invitrogen, Karslruhe, Germany, cat. no PV4071) was used. As substrate for the kinase reaction a biotinylated peptide of the amino-acid sequence […] (C-terminus in amide form, purchased from Biosynthan GmbH, Berlin) was used.
The concentration of Mps-1 in the assay was adjusted to the activity of the enzyme lot and was chosen appropriate to have the assay in the linear range, typical enzyme concentrations were in the range of about 1 nM (final conc. in the 5 μl assay volume).
The resulting mixture was incubated 1 h at 22° C. to allow the binding of the phosphorylated peptide to the anti-phospho(Ser/Thr)-Europium-antibody. Subsequently the amount of phosphorylated substrate was evaluated by measurement of the resonance energy transfer from the Europium-labelled anti-phospho(Ser/Thr) antibody to the Streptavidin-XLent.

IC50 [nM] | Compound
27.7 | CC[S+]([O-])c1nc(-c2ccccc2)cn2c(-c3ccc(C(=O)NC4CC4)cc3)cnc12 (racemic) [Example 5A, (RS) N-Cyclopropyl-4-[8-(ethylsulfinyl)-6-phenylimidazo[1,2-a]pyrazin-3-yl]benzamide]
10.3 | CCCC[S+]([O-])c1nc(-c2ccccc2)cn2c(-c3ccc(C(=O)NC4CC4)cc3)cnc12 (racemic) [Example 9A, (RS) 4-[8-(Butylsulfinyl)-6-phenylimidazo[1,2-a]pyrazin-3-yl]-N-cyclopropylbenzamide]
23 | CC(C)(C)CC[S+]([O-])c1nc(-c2ccccc2)cn2c(-c3ccc(C(=O)NC4CC4)cc3)cnc12 (racemic) [Example 11A, (RS) N-Cyclopropyl-4-{8-[(3,3-dimethylbutyl)sulfinyl]-6-phenylimidazo[1,2-a]pyrazin-3-yl}benzamide]
16.9 | O=C(NC1CC1)c1ccc(-c2cnc3c([S+]([O-])Cc4ccco4)nc(-c4ccccc4)cn23)cc1 (racemic) [Example 28A, (RS) N-cyclopropyl-4-{8-[(2-furylmethyl)sulfinyl]-6-phenylimidazo[1,2-a]pyrazin-3-yl}benzamide]
48.7 | CSc1nc(-c2ccc(CCO)cc2)cn2c(-c3ccc(-c4cnc(C5CC5)[nH]4)cc3)cnc12 (single isomer, unassigned) [Example 34A, 2-(4-{3-[4-(2-cyclopropyl-1H-imidazol-5-yl)phenyl]-8-(methylsulfanyl)imidazo[1,2-a]pyrazin-6-yl}phenyl)ethanol]
